Source: PubChem BioAssay AID624467 (The Scripps Research Institute Molecular Screening Center, 2012)
The list shows a part of the results, in another mix than the full data. Some tests of the compounds listed are not included; inactive here does not mean inactive elsewhere. Calls of active or inactive are those of the source.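 How the source made its calls: active means activation above the mean activation of all test compounds in the run plus 3 SD (cut at about 38% in these data); inactive means the rest.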

By UniProt entry, the sequences of proteins in these tests, tags left out.
UniProt Q96RJ0, whole entry: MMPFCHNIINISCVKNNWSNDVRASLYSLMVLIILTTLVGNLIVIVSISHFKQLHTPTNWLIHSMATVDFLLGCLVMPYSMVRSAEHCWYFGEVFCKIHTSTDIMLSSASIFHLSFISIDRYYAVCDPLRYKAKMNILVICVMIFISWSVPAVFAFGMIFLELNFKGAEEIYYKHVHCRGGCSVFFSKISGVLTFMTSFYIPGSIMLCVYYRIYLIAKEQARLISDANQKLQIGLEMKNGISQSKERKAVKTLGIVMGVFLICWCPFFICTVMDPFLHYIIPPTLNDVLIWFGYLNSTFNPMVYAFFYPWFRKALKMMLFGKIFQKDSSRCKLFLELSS

biological target: Trace amine-associated receptor 1 (Homo sapiens) (UniProt Q96RJ0); test: human TAAR1 agonists, primary screen, Fluo-8 calcium fluorescence, CHO RD-HGA16 cells (AID 624467); conditions: CHO RD-HGA16 TAAR1, Fluo-8 calcium fluorescence; at 3 µM; active compounds read high; vehicle wells 0%, saturating PEA agonist 100%

Question: For `O=C(OC1CN2CCC1CC2)C(CO)(c1ccccc1)c1ccccc1` (stereo unspecified), which activation is on record?
Answer: inactive: 3.07%

Question: How did the activation turn out when `COc1ccc(Br)c(C(=O)NCC2(N3CCCCC3)CCCCC2)c1` was run?
Answer: inactive: -4.14%

Question: For `C=C(C)C#CC(O)(C(=O)OC1CCN(C)CC1)c1ccccc1` (stereo unspecified), which activation is on record?
Answer: inactive: 4.66%

Question: For `CN(C)c1cccc(C(=O)NCC2(N(C)C)CCCCC2)c1`, which activation is on record?
Answer: inactive: 1.72%

Question: For `O=C(OCCN1CCCC1)C(O)(c1ccccc1)c1ccccc1`, which activation is on record?
Answer: inactive: 2.56%

Question: With `CC(C)Oc1ccc(C(=O)NCC2(N(C)C)CCCCC2)cc1` as the compound, how does the activation read?
Answer: inactive: 6.32%

Question: With `CN(C)C1(CNC(=O)c2ccc(Br)cc2)CCCCC1` as the compound, how does the activation read?
Answer: inactive: 6.04%

Question: Which activation does the source give for `COc1cc(C(=O)NCC2(N(C)C)CCCCC2)c([N+](=O)[O-])cc1OC` here?
Answer: inactive: 0.28%

Question: With `COc1ccc(Cl)cc1C(=O)NCC1(N(C)C)CCCCC1` as the compound, how does the activation read?
Answer: inactive: 0.62%

Question: How did the activation turn out when `COc1cccc(C(=O)NCC2(N3CCCCC3)CCCCC2)c1` was run?
Answer: inactive: 0.04%

Question: With `O=C(NCC1(N2CCCCC2)CCCCC1)c1cccc(Cl)c1` as the compound, how does the activation read?
Answer: inactive: -0.82%

Question: With `CN(C)c1ccc(C(=O)NCC2(N(C)C)CCCCC2)cc1` as the compound, how does the activation read?
Answer: inactive: 8.65%

Question: Which activation does the source give for `CN(C)C1CCCC1OC(=O)C(O)(c1ccccc1)c1ccccc1` (stereo unspecified) here?
Answer: inactive: 2.13%

Question: With `Cc1ccccc1C(=O)NCC1(N2CCCCC2)CCCCC1` as the compound, how does the activation read?
Answer: inactive: 8.78%

Question: How did the activation turn out when `O=C(NCC1(N2CCCCC2)CCCCC1)c1cc(F)c(F)cc1Cl` was run?
Answer: inactive: -0.17%

Question: For `C=CCN1CCN(CCOC(=O)C(O)(c2ccccc2)c2ccccc2)CC1`, which activation is on record?
Answer: inactive: 3%

Question: `O=C(NCC1(N2CCCCC2)CCCCC1)c1cccc(Br)c1` was tested. Which activation did it give?
Answer: inactive: 0.66%

Question: For `CCN1CCCC(OC(=O)C2(O)c3ccccc3C=Cc3ccccc32)C1` (stereo unspecified), which activation is on record?
Answer: inactive: 4.94%

Question: How did the activation turn out when `Cc1cc(C(=O)NCC2(N3CCCCC3)CCCCC2)ccc1[N+](=O)[O-]` was run?
Answer: inactive: 14.2%

Question: `COc1ccc(C(=O)NCC2(N(C)C)CCCCC2)cc1` was tested. Which activation did it give?
Answer: inactive: 0.14%

Question: Which activation does the source give for `O=C(NCC1(N2CCCCC2)CCCCC1)c1cc([N+](=O)[O-])ccc1Cl` here?
Answer: inactive: -0.98%

Question: How did the activation turn out when `CN1[C@@H]2CC[C@H]1CC(OC(=O)C(O)(c1ccccc1)c1ccccc1)C2` (stereo partly specified) was run?
Answer: inactive: 3.19%

Question: For `CC(C)N1C(=O)CC2(CCN(CCOC(=O)C(O)(c3ccccc3)c3ccccc3)CC2)C1=O`, which activation is on record?
Answer: inactive: 5.84%

Question: `COc1cc(SC)ccc1C(=O)NCC1(N(C)C)CCCCC1` was tested. Which activation did it give?
Answer: inactive: -0.67%

Question: With `CCN(CC)CC(C)C(C)OC(=O)C(O)(c1ccccc1)c1ccccc1` (stereo unspecified) as the compound, how does the activation read?
Answer: inactive: -0.12%

Question: `Cc1ccc(C(=O)NCC2(N3CCCCC3)CCCCC2)cc1` was tested. Which activation did it give?
Answer: inactive: 4.69%
